Sequences of proteins named here, by UniProt entry; tags and fusion partners are left off.
UniProt P11712, whole entry, looked up: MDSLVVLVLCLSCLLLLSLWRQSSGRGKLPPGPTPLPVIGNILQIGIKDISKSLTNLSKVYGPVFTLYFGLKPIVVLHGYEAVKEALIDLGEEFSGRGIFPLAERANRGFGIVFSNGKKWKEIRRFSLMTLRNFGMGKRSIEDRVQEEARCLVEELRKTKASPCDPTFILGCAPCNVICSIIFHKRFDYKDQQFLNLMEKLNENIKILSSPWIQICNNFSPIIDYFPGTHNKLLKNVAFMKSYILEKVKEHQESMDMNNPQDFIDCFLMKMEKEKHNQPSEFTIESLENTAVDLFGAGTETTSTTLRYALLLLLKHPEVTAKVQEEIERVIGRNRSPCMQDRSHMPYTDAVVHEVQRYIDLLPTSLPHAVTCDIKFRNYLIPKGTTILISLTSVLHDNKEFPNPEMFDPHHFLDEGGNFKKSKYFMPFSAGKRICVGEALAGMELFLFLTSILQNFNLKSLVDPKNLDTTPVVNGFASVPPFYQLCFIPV

According to patent US9402878B2, “Depsipeptide and uses thereof” (priority 2012, dated 2016):

Target: Cyp2C9 (Homo sapiens (Human), UniProt P11712)
Assay: Cytochrome P450 inhibitory activity, liver microsomes

sulphaphenazole
CYP2C9 % inhibition compared to vehicle (conc. 1 (1 μM)): 87.5% | CYP2C9 % inhibition compared to vehicle (conc. 2 (0.1 μM)): 55.6%
